Results: ChEMBL document CHEMBL1128307, “2-Aralkynyl and 2-heteroalkynyl derivatives of adenosine-5'-N-ethyluronamide as selective A2a adenosine receptor agonists” (J Med Chem, 1995)

Test system: Adenosine receptors A1 & A2a (Rattus norvegicus)
Assay: Selectivity as the ratio of Ki value towards A1 receptor to that of A2a receptor
Type: protein assay

In the case of C#Cc1nc(N)c2ncn([C@@H]3O[C@H](C(=O)NCC)[C@@H](O)[C@H]3O)c2n1, the Selectivity was 0.6.
